Legend:
PON1 in plasma = assay: in vitro; settings: human
PON1 = assay: in vitro; settings: female, human, pH 7.4, Km(app)

`CCOP(=O)(OCC)Oc1nc(Cl)c(Cl)cc1Cl` [CPO, chlorpyrifos-oxon] showed a Km (PON1 in plasma; both, pH 7.4, Km (mean)) of 290 µM, a Km (PON1 in plasma; female, pH 7.4, Km(app)) of 226 µM and a Km (PON1) of 201 µM.

— PMC9013686, “Inter-individual variation in chlorpyrifos toxicokinetics characterized by physiologically based kinetic (PBK) and Monte Carlo simulation comparing human liver microsome and Supersome™ cytochromes P450 (CYP)-specific kinetic data as model input” (Archives of Toxicology, 2022)
